One may read the EC50 as the concentration needed to bring the measured effect to its halfway point.

By UniProt entry, the sequences of proteins in these tests, tags left out. Chains listed by the source or under a name are the forms on record and can include a tag or linker.
UniProt P13569, with tags, fused parts or gaps DEL508-508: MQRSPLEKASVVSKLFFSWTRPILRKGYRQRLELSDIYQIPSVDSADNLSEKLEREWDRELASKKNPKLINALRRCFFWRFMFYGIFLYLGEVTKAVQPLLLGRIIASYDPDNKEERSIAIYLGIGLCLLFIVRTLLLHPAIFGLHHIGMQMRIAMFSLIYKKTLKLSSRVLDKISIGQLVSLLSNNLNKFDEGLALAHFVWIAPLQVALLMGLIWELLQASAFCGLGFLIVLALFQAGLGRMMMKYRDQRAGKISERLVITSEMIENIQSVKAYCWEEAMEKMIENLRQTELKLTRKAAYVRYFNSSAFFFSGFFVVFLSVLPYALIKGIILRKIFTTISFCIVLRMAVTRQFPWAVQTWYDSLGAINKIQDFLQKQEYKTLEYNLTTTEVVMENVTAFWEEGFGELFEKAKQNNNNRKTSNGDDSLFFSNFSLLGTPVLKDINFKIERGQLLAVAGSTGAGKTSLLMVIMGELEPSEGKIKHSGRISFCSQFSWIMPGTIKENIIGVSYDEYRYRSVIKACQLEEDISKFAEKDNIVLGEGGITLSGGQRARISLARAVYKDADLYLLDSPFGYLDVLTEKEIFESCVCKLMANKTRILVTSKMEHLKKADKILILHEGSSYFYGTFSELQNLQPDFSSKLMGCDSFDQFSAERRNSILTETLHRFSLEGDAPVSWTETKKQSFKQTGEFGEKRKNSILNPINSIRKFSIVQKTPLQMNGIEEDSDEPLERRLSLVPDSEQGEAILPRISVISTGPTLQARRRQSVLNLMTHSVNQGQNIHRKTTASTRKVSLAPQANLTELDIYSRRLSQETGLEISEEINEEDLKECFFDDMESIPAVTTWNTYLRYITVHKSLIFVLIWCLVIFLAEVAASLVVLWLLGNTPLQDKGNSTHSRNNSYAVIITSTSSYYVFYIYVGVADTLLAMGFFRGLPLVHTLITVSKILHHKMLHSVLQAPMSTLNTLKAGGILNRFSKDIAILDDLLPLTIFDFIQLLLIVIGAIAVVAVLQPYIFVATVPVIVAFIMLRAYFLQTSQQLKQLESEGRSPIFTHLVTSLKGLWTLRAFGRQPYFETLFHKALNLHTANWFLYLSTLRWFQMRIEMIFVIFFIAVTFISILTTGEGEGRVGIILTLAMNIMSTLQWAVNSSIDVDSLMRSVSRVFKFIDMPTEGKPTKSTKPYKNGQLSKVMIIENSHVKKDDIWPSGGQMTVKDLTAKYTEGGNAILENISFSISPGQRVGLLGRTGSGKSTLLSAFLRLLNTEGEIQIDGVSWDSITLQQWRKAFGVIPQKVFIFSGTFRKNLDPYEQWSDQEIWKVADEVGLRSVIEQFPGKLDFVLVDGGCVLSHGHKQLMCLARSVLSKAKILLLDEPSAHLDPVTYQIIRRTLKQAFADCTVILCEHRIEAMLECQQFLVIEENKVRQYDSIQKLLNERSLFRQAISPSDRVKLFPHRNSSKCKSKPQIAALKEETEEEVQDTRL

The text below walks through data of US20180099931A1 (AbbVie S.à.r.l., priority 2016, published 2018).

Where two headings read alike, the source gives them in different places. Some results are limits rather than exact numbers.

The target in this assay is F508delCFTR (Homo sapiens, UniProt P13569, DEL508-508). The assay can be described thus: Cell Surface Expression-Horse Radish Peroxidase (CSE-HRP) Assay.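 As to Maximum % activity (with co-corrector): co-corrector and positive control are both the same reference corrector at 2 µM.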 Type of assay: cell-based. As to conditions: for Maximum % activity (with co-corrector): maximum at any tested concentration, normalized to on-plate positive control.
Setting [1] is: read-out: EC50 (with co-corrector), with co-corrector (2 μM of 3-[(2R,4R)-4-({[1-(2,2-difluoro-1,3-benzodioxol-5-yl)cyclopropyl]carbonyl}amino)-7-methoxy-3,4-dihydro-2H-chromen-2-yl]benzoic acid).
The mark [2] stands for this setting: read-out: EC50 (without co-corrector), test compound without co-corrector.
Where [3] appears, read: with co-corrector (2 μM of 3-[(2R,4R)-4-({[1-(2,2-difluoro-1,3-benzodioxol-5-yl)cyclopropyl]carbonyl}amino)-7-methoxy-3,4-dihydro-2H-chromen-2-yl]benzoic acid).
The mark [4] stands for this setting: CSE-HRP, with co-corrector (2 μM).
The mark [5] stands for this setting: read-out: EC50 (with co-corrector), CSE-HRP, with co-corrector (2 μM of 3-[(2R,4R)-4-({[1-(2,2-difluoro-1,3-benzodioxol-5-yl)cyclopropyl]carbonyl}amino)-7-methoxy-3,4-dihydro-2H-chromen-2-yl]benzoic acid).
The mark [6] stands for this setting: read-out: EC50 (without co-corrector), CSE-HRP, test compound without co-corrector.

Take `CC(C)(C)[C@@H]1[C@@H](NCc2ccccc2Cl)[C@@H](c2ccccc2)N(C(=O)CC2CCCC2)[C@H]1C(=O)O` (relative stereo): the concentration giving a half-maximal response (EC50) was 1000 to 10000 nM under setting [1] and 1000 to 10000 nM under setting [2]. Under setting [3], the “Maximum % activity (with co-corrector)” value is listed as “+++ (≥350)”.
As for `COc1ccc(C23CC4CC(CC(C4)C2)C3)cc1CN[C@H]1[C@H](C(C)(C)C)[C@@H](C(=O)O)N(C(=O)OC(C)C)[C@H]1c1ccccc1`, the EC50 runs as follows: under setting [1], less than 1000 nM; under setting [2], less than 1000 nM. Under setting [3], the “Maximum % activity (with co-corrector)” value is recorded as “+++ (≥350)”.
With `COc1ccc(C23CC4CC(CC(C4)C2)C3)cc1CN[C@H]1[C@H](C(C)(C)C)[C@@H](C(=O)O)N(C(=O)OC(C)C)[C@H]1c1cccnc1N(C)C`, the EC50 reads like this: under setting [1], less than 1000 nM; under setting [2], 1000 to 10000 nM. For the same compound, the “Maximum % activity (with co-corrector)” value (with co-corrector (2 μM)) is given as “+++ (≥350)”.
For the compound `CC[C@]1(O)CC[C@H](C(=O)N2[C@H](C(=O)O)[C@@H](C(C)(C)C)[C@H](NCc3cc(C(C)(C)C)ccc3OC)[C@@H]2c2ccccc2)CC1`, the EC50 reads like this: under setting [1], 1000 to 10000 nM; under setting [2], 1000 to 10000 nM. Under setting [3], the “Maximum % activity (with co-corrector)” value was “+++ (≥350)”.
As for `COc1ccc(C(C)(C)C)cc1CN[C@H]1[C@H](C(C)(C)C)[C@@H](C(=O)O)N(C(=O)[C@H]2CC[C@](O)(C(F)(F)F)CC2)[C@H]1c1ccccc1`, the EC50 lay in the range of 1000 to 10000 nM under setting [1] and 1000 to 10000 nM under setting [2]. In addition, the “Maximum % activity (with co-corrector)” value under setting [3] was “+++ (≥350)”.
Consider `COc1ccc(C(C)(C)C)cc1CN[C@H]1[C@H](C(C)(C)C)[C@@H](C(=O)O)N(C(=O)[C@@H]2C[C@H](C)C[C@H](C)C2)[C@H]1c1ccccc1`, for which the half-maximal effective concentration (EC50) is less than 1000 nM under setting [1] and less than 1000 nM under setting [2]. Under setting [3], the “Maximum % activity (with co-corrector)” value is given as “+++ (≥350)”.
Regarding `COc1ccc(C23CC4CC(CC(C4)C2)C3)cc1CN[C@H]1[C@H](C(C)(C)C)[C@@H](C(=O)O)N(C(=O)C2CCCCC2)[C@H]1c1ccccc1F`, the concentration for a half-maximal effect (EC50) under setting [1] is less than 1000 nM and the half-maximal effective concentration (EC50) under setting [2] was less than 1000 nM. For the same compound, the “Maximum % activity (with co-corrector)” value (with co-corrector (2 μM)) is “+++ (≥350)”.
In the case of `COc1ccc(C2CCC2)cc1CN[C@H]1[C@H](C(C)(C)C)[C@@H](C(=O)O)N(C(=O)OC(C)C)[C@H]1c1cccnc1N(C)C`, the EC50 under setting [1] is less than 1000 nM and the concentration giving a half-maximal response (EC50) under setting [2] lay within 1000 to 10000 nM. For the same compound, the “Maximum % activity (with co-corrector)” value under setting [3] is “+++ (≥350)”.
As for `COc1ncc(C(F)(F)F)cc1CN[C@H]1[C@H](C(C)(C)C)[C@@H](C(=O)O)N(C(=O)[C@@H]2CCCO2)[C@H]1c1ccccc1Cl`, the “Maximum % activity (with co-corrector)” value under setting [4] was “+++ (≥350)”. The EC50 by setting is: under setting [5], 1000 to 10000 nM; under setting [6], 1000 to 10000 nM.
In the case of `CC(C)(C)[C@@H]1[C@@H](Nc2ccc(Cl)cn2)[C@@H](c2ccccc2)N(C(=O)C2CCCCC2)[C@H]1C(=O)O` (relative stereo), the “Maximum % activity (with co-corrector)” value under setting [4] was “++ (≥150 and <350)”. Besides, the half-maximal effective concentration (EC50) was in the range of 1000 to 10000 nM under setting [5] and 1000 to 10000 nM under setting [6].
For `COc1ccc(C23CC4CC(CC(C4)C2)C3)cc1CN[C@H]1[C@H](C(C)(C)C)[C@@H](C(=O)O)N(C(=O)C2CCCCC2)[C@H]1c1ccccc1`, the EC50 under setting [1] was less than 1000 nM and the EC50 under setting [2] was less than 1000 nM. Also, the “Maximum % activity (with co-corrector)” value (with co-corrector (2 μM)) is “+++ (≥350)”.
For `CC(C)(C)[C@H]1[C@H](NC2CCc3cc(Cl)ccc32)[C@H](c2ccccc2)N(C(=O)C2CCCCC2)[C@@H]1C(=O)O` (stereo partly drawn), the half-maximal effective concentration (EC50) was 1000 to 10000 nM under setting [1] and 1000 to 10000 nM under setting [2]. Also, the “Maximum % activity (with co-corrector)” value (with co-corrector (2 μM)) is reported as “+++ (≥350)”.
As for `COc1cc(C(F)(F)F)ccc1CN[C@H]1[C@H](C(C)(C)C)[C@@H](C(=O)O)N(C(=O)C2CCOC(C)(C)C2)[C@H]1c1ccccc1N(C)C` (relative stereo), the concentration for a half-maximal effect (EC50) by setting is: under setting [1], 1000 to 10000 nM; under setting [2], 1000 to 10000 nM. In addition, the “Maximum % activity (with co-corrector)” value (with co-corrector (2 μM)) was “+++ (≥350)”.
Regarding `COc1ccc(C(C)(C)C)cc1CN[C@H]1[C@H](C(C)(C)C)[C@@H](C(=O)O)N(C(=O)[C@H]2CCCCO2)[C@H]1c1ccccc1C(C)C` (single isomer, unassigned), the concentration giving a half-maximal response (EC50) is, setting by setting: under setting [1], less than 1000 nM; under setting [2], less than 1000 nM. Moreover, under “with co-corrector (2 μM)”, the “Maximum % activity (with co-corrector)” value is given as “+++ (≥350)”.
As for `CCC[C@]1(O)CC[C@H](C(=O)N2[C@H](C(=O)O)[C@@H](C(C)(C)C)[C@H](NCc3cc(C(C)(C)C)ccc3OC)[C@@H]2c2ccccc2)CC1`, the concentration giving a half-maximal response (EC50) reads like this: under setting [1], 1000 to 10000 nM; under setting [2], 1000 to 10000 nM. For the same compound, under setting [3], the “Maximum % activity (with co-corrector)” value was “+++ (≥350)”.
On to `COc1ccc(C(C)(C)C)cc1CN[C@H]1[C@H](C(C)(C)C)[C@@H](C(=O)O)N(C(=O)C2CCC(O)(C(C)C)CC2)[C@H]1c1ccccc1` (stereo partly drawn), for which the concentration for a half-maximal effect (EC50) runs as follows: under setting [1], less than 1000 nM; under setting [2], 1000 to 10000 nM. Besides, for the setting “with co-corrector (2 μM)”, the “Maximum % activity (with co-corrector)” value was “+++ (≥350)”.
As for `CCCC1(O)CCC(C(=O)N2[C@H](C(=O)O)[C@@H](C(C)(C)C)[C@H](Nc3cc(C(F)(F)F)cnc3OC)[C@@H]2c2cccnc2N(C)C)CC1` (stereo partly drawn), the EC50 is, setting by setting: under setting [1], more than 10000 nM; under setting [2], more than 10000 nM. Besides, the “Maximum % activity (with co-corrector)” value (with co-corrector (2 μM)) is on record as “+ (<150)”.
`COc1ccc(C(C)(C)C)cc1CN[C@H]1[C@H](C(C)(C)C)[C@@H](C(=O)O)N(C(=O)[C@H]2CC[C@@](O)(C(C)C)CC2)[C@H]1c1ccccc1`: the EC50 runs as follows: under setting [1], 1000 to 10000 nM; under setting [2], 1000 to 10000 nM. In addition, the “Maximum % activity (with co-corrector)” value under setting [3] is recorded as “+++ (≥350)”.
Consider `C=CC[C@]1(O)CC[C@H](C(=O)N2[C@H](C(=O)O)[C@@H](C(C)(C)C)[C@H](NCc3cc(C(C)(C)C)ccc3OC)[C@@H]2c2ccccc2)CC1`, for which the concentration for a half-maximal effect (EC50) by setting is: under setting [1], 1000 to 10000 nM; under setting [2], 1000 to 10000 nM. For the same compound, the “Maximum % activity (with co-corrector)” value under setting [3] is given as “+++ (≥350)”.
With `COc1ccc(C(F)(F)F)cc1CN[C@H]1[C@H](C(C)(C)C)[C@@H](C(=O)O)N(C(=O)C2CCCCC2)[C@H]1c1cccnc1OC` (relative stereo), the “Maximum % activity (with co-corrector)” value under setting [4] is given as “+++ (≥350)”. For the same compound, the concentration giving a half-maximal response (EC50) is, setting by setting: under setting [5], 1000 to 10000 nM; under setting [6], 1000 to 10000 nM.
On to `CCC1(O)CCC(C(=O)N2[C@H](C(=O)O)[C@@H](C(C)(C)C)[C@H](NCc3cc(C(C)(C)C)ccc3OC)[C@@H]2c2ccccc2)CC1` (stereo partly drawn), for which the EC50 under setting [1] was in the range of 1000 to 10000 nM and the EC50 under setting [2] was in the range of 1000 to 10000 nM. Besides, the “Maximum % activity (with co-corrector)” value (with co-corrector (2 μM)) is “+++ (≥350)”.
Regarding `COc1cc(Cl)ccc1CN[C@H]1[C@H](C(C)(C)C)[C@@H](C(=O)O)N(C(=O)C2CCCCC2)[C@H]1c1cccnc1OC` (relative stereo), the “Maximum % activity (with co-corrector)” value under setting [4] is “+++ (≥350)”. The EC50 reads like this: under setting [5], 1000 to 10000 nM; under setting [6], 1000 to 10000 nM.
For the compound `CC(C)(C)[C@H]1[C@H](NC2Cc3ccc(Cl)cc3C2)[C@H](c2ccccc2)N(C(=O)C2CCCCC2)[C@@H]1C(=O)O` (stereo partly drawn), the EC50 under setting [1] lay within 1000 to 10000 nM and the half-maximal effective concentration (EC50) under setting [2] was less than 1000 nM. The “Maximum % activity (with co-corrector)” value (with co-corrector (2 μM)) was “+++ (≥350)”.
With `COc1ccc(C23CC4CC(CC(C4)C2)C3)cc1CN[C@H]1[C@H](C(C)(C)C)[C@@H](C(=O)O)N(C(=O)C2CCCCC2)[C@H]1c1ccc(F)cc1`, the “Maximum % activity (with co-corrector)” value under setting [4] was “+++ (≥350)”. The EC50 was less than 1000 nM under setting [5] and 1000 to 10000 nM under setting [6].
On to `CC(C)(C)[C@H]1[C@H](NC2Cc3cccc(Cl)c3C2)[C@H](c2ccccc2)N(C(=O)C2CCCCC2)[C@@H]1C(=O)O` (stereo partly drawn), for which the EC50 under setting [1] was less than 1000 nM and the concentration for a half-maximal effect (EC50) under setting [2] lay within 1000 to 10000 nM. Also, for the setting “with co-corrector (2 μM)”, the “Maximum % activity (with co-corrector)” value was “+++ (≥350)”.
In the same order, the values of `C=CCC1(O)CCC(C(=O)N2[C@H](C(=O)O)[C@@H](C(C)(C)C)[C@H](NCc3cc(C(C)(C)C)ccc3OC)[C@@H]2c2ccccc2)CC1` (stereo partly drawn) are 1000 to 10000 nM, 1000 to 10000 nM and “+++ (≥350)”.
Turning to `COc1ccc(Cl)cc1CN[C@H]1[C@H](C(C)(C)C)[C@@H](C(=O)O)N(C(=O)C2CCCCC2)[C@H]1c1cccnc1OC` (relative stereo), under setting [4], the “Maximum % activity (with co-corrector)” value is on record as “+++ (≥350)”. The concentration giving a half-maximal response (EC50) reads like this: under setting [5], 1000 to 10000 nM; under setting [6], 1000 to 10000 nM.
As for `COc1ccc(C(C)(C)C)cc1CN[C@H]1[C@H](C(C)(C)C)[C@@H](C(=O)O)N(C(=O)C2CCc3ccc(Cl)cc32)[C@H]1c1ccccc1` (stereo partly drawn), the EC50 by setting is: under setting [1], less than 1000 nM; under setting [2], less than 1000 nM. Under setting [3], the “Maximum % activity (with co-corrector)” value is “+++ (≥350)”.
Regarding `COc1ccc(C(C)(C)C)cc1CN[C@H]1[C@H](C(C)(C)C)[C@@H](C(=O)O)N(C(=O)C2CCC(O)(C(F)(F)F)CC2)[C@H]1c1ccccc1` (stereo partly drawn), the EC50 is, setting by setting: under setting [1], 1000 to 10000 nM; under setting [2], 1000 to 10000 nM. Also, under setting [3], the “Maximum % activity (with co-corrector)” value is given as “+++ (≥350)”.
